SMARCA2 activ: SMARCA2 function activation, primary screen; MG213 cells, MMTV-luciferase reporter, dexamethasone, overnight; activation, % at 9.1 µM; 1% of 370,000 active; in the data active = activation above about 7.8%;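 note: 0% = vehicle wells and 100% = reference activator wells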
NR1D1 modulator: modulators of human Rev-erb alpha DNA binding | P20393 | Rev-erbα–FITC-DNA binding, fluorescence polarization, 90 min | activity, % at 10 µM | 0.79% of 370,000 active;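 active = activity above about 14%, limit read from the data; passing the limit was not always enough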;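 note: 0% = DMSO wells with 35 nM protein and 100% = DMSO wells with 750 nM protein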
GSIS activator: primary screen for activators of insulin secretion dependent on glucose, INS-1E cells, GLuc reporter luminescence; INS-1E GLuc reporter insulin secretion, 2-3 h; activation, % at 16.6 µM; 0.61% of 370,000 active;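 active = lowest replicate activation of at least 40%, so every replicate reaches that level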;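 note: 0% = median of neutral control wells and 100% = median of IBMX positive control wells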
PDI turbidity: blocks human protein disulfide isomerase activity | PDI insulin aggregation turbidity, A650, 90 min | inhibition, % at 10 µM | 0.052% of 350,000 active;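 active = mean inhibition across replicates of 30% or more, whatever share of single replicates reach that level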
UUG fidelity: modulators of start codon recognition fidelity in yeast; AID 602363; activity score, % at 18.7 µM; S. cerevisiae UUG-firefly luciferase reporter, luminescence/redox ratio; 0.13% of 350,000 active;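 active = replicate mean at a twofold rise or more, about +100% in these data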;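 note: firefly luciferase made from a UUG start codon reports start codon fidelity; reporter light over untreated wells divided by growth signal over untreated wells; some hits fall short of that in this replicate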
ERp5 block: ERp5 (human) disulfide isomerase inhibition; Q15084; AID 651711; ERp5 insulin aggregation, absorbance 650 nm, 90 min; 0.05% of 350,000 active; inhibition, % at 9.99 µM;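 active = mean replicate inhibition above about 25%, with every replicate also reaching it, limit read from the data, passing the limit was not always enough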
SMARCA2 act conf: confirmation of SMARCA2 (BRM) function activators. activation, % at 9.1 µM. shares compounds with SMARCA2 activ. AID 652260. 30% of 3,500 active. MG213 cells, MMTV-luciferase with dexamethasone, luminescence, overnight; MG213 cells expressing E1A, Rb sequestered; DMSO wells 0%, reference activator 100%;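 active = activation above its plate's cutoff, the mean activation of tested wells plus 3 SD, cut at about 7.9% in these data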
GAL4-VP16 Luc: activates GAL4-VP16 luciferase, flagging SMARCA2 activator hits; shares compounds with SMARCA2 activ; HEK293 GAL4-VP16 pG5luc reporter, luciferase luminescence; scaled: DMSO wells 0%, SAHA wells 100%; activation, % at 9.1 µM; 41% of 3,500 active; AID 686939;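 active = activation above the solvent-only control well mean plus 3 SD, averaged across control plates, cut at about 5.2% in these data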
The depositor's hits bear a star; . = no result given. Most compounds without a hit are left out; they make up all but 2.1% or so of the library.

[1] CO[C@@H]1CN(C)C(=O)c2cc(NS(C)(=O)=O)ccc2OC[C@@H](C)N(Cc2ccccc2)C[C@H]1C
[2] C[C@@H]1CN([C@H](C)CO)C(=O)Cc2cc(NC(=O)Cc3ccccc3)ccc2O[C@H]1CN(C)S(=O)(=O)c1ccccc1
[3] CCC/C(=N\NC(=O)C1CC1)c1ccc(Br)cc1
[4] CCC/C(=N\NC(=O)C1CC1)c1ccccc1
[5] C[C@H]1CN([C@@H](C)CO)C(=O)c2cccc(NS(=O)(=O)c3cccs3)c2O[C@@H]1CN(C)Cc1ccc(-c2ccccc2)cc1
[6] Cc1nc2c(C(=O)NCCc3ccccc3)c[nH]n2c(=O)c1Cl
Assay by compound,1,2,3,4,5,6
SMARCA2 activ,.,.,-2,8.1*,.,-2
NR1D1 modulator,.,.,-2,-3,.,-7
GSIS activator,-9,9,11,18,-27,-9
PDI turbidity,.,.,-1,7,.,0
UUG fidelity,4,10,-6,0,-10,.
ERp5 block,0,13,-3,-6,3,8
SMARCA2 act conf,.,.,.,0,.,.
GAL4-VP16 Luc,.,.,.,0,.,.

Reprinted from the part before: four entries, then new ones.
[3] CCC/C(=N\NC(=O)C1CC1)c1ccc(Br)cc1
[4] CCC/C(=N\NC(=O)C1CC1)c1ccccc1
[5] C[C@H]1CN([C@@H](C)CO)C(=O)c2cccc(NS(=O)(=O)c3cccs3)c2O[C@@H]1CN(C)Cc1ccc(-c2ccccc2)cc1
[6] Cc1nc2c(C(=O)NCCc3ccccc3)c[nH]n2c(=O)c1Cl
[7] Cc1nc2c(C(=O)NCCC(C)C)c[nH]n2c(=O)c1Cl
[8] O=C(C1CCCC1)N1CCCCN2[C@H](CO)[C@@H](c3ccc(C#CC4CC4)cc3)[C@@H]2C1
[9] Cc1cccc(C(=O)N[C@H](C(=O)Nc2ncc(C)s2)C(C)C)c1
[10] C[C@@H]1CN([C@H](C)CO)C(=O)c2cc(NC(=O)Nc3ccccc3)ccc2O[C@@H](C)CCCCO[C@H]1CN(C)Cc1ccncc1
[11] O=C(Nc1ccccc1F)N1CCc2ccccc2C1
[12] Cc1ccc(C)c(NC(=O)N2CCc3ccccc3C2)c1
Assay by compound,3,4,5,6,7,8,9,10,11,12
SMARCA2 activ,-2,8.1*,.,-2,9.5*,.,27*,.,10*,3
NR1D1 modulator,-2,-3,.,-7,-5,.,0,.,5,-5
GSIS activator,11,18,-27,-9,5,.,-22,-13,2,.
PDI turbidity,-1,7,.,0,-1,.,-1,.,-5,13
UUG fidelity,-6,0,-10,.,.,4,.,.,-4,6
ERp5 block,-3,-6,3,8,.,2,0,1,-14,2
SMARCA2 act conf,.,0,.,.,0,.,26*,.,2,.
GAL4-VP16 Luc,.,0,.,.,2,.,0,.,8.0*,.

[13] CC(C)NC(=O)N(C)C[C@@H]1OCCCC[C@H](C)Oc2ccc(NS(=O)(=O)c3ccc(F)cc3)cc2C(=O)N([C@@H](C)CO)C[C@@H]1C
[14] CCCC(=O)Nc1nnc(-c2ccc3c(c2)OCCO3)o1
[15] CCCC(=O)Nc1nc(-c2ccc3c(c2)OCCO3)cs1
[16] O=C(CC1Oc2ccccc2NC1=O)NCc1ccccc1 (stereo not drawn)
[17] CC(=O)CC1OC(=O)C(Br)=C1NCc1ccccc1 (stereo not drawn)
[18] C[C@@H]1CN([C@@H](C)CO)S(=O)(=O)c2ccc(C#Cc3ccncc3)cc2O[C@@H]1CN(C)C(=O)C1CC1
Assay by compound,13,14,15,16,17,18
SMARCA2 activ,.,10*,6,-2,13*,.
NR1D1 modulator,.,4,0,1,10,.
GSIS activator,-1,-5,16,-5,.,-1
PDI turbidity,.,-2,-7,-5,-2,.
UUG fidelity,-2,.,-16,-6,-7,-6
ERp5 block,0,9,3,4,.,-4
SMARCA2 act conf,.,6,.,.,-4,.
GAL4-VP16 Luc,.,4,.,.,3,.

[19] Cc1cc(C(=O)Nc2cccc3c2O[C@H](CN(C)S(=O)(=O)c2cn(C)cn2)[C@H](C)CN([C@H](C)CO)C3=O)n(C)n1
[20] CC(C)NC(=O)C1(C#N)C=C1c1ccccc1 (stereo not drawn)
[21] CC(C)NC(=O)c1ccccc1-c1ccccc1
[22] O=C(N[C@@H]1CC[C@@H](CCNC(=O)C2CCC2)O[C@@H]1CO)c1ccncc1
[23] COCC(=O)Nc1ccc2c(c1)C(=O)N(C)C[C@@H](OC)[C@H](C)CN(CCC(F)(F)F)[C@@H](C)CO2
[24] O=C(CCNC(=O)c1ccccc1)NCc1ccccc1F
Assay by compound,19,20,21,22,23,24
SMARCA2 activ,.,9.4*,-1,.,.,9.4*
NR1D1 modulator,.,2,-6,.,.,0
GSIS activator,8,-14,-6,-11,7,9
PDI turbidity,.,.,6,.,.,13
UUG fidelity,.,.,-11,-12,13,-6
ERp5 block,-4,-3,5,-7,6,.
SMARCA2 act conf,.,3,.,.,.,7
GAL4-VP16 Luc,.,-1,.,.,.,4

[25] CCCc1nc(N2CCOCC2)c(C#N)c2c1CCCC2
[26] CN1CCc2c(C#N)c(N3CCOCC3)nc(NCC3CCCO3)c2C1 (stereo not drawn)
[27] COc1ccc(C[C@H]2CCn3cc(nn3)COC[C@@H](C(C)C)NC2=O)cc1
[28] N#Cc1c(NC(=S)NC(=O)C2CCCC2)sc2c1CCCCC2
[29] CNC[C@H]1Oc2ccc(NC(=O)Nc3cccc4ccccc34)cc2CC(=O)N([C@H](C)CO)C[C@H]1C
[30] O=C(C[C@@H]1C[C@@H]2c3cc(NS(=O)(=O)c4ccccc4)ccc3O[C@@H]2[C@@H](CO)O1)N1CCCCC1
Assay by compound,25,26,27,28,29,30
SMARCA2 activ,-2,12*,.,13*,.,.
NR1D1 modulator,5,-1,.,6,.,.
GSIS activator,.,2,19,-25,8,0
PDI turbidity,-20,-1,.,9,.,.
UUG fidelity,6,-17,.,.,15,12
ERp5 block,.,3,-2,.,3,3
SMARCA2 act conf,.,-3,.,-1,.,.
GAL4-VP16 Luc,.,0,.,3,.,.

[31] C=CCn1c(SCC(=O)NCc2ccco2)nnc1-c1ccc2ccccc2n1
[32] C=CCn1c(SCC(=O)NCc2ccco2)nc2ccccc2c1=O
[33] c1ccc(-n2cnc3cc(NCc4cccs4)ccc32)cc1
[34] c1ccc(-n2cnc3cc(NCc4ccco4)ccc32)cc1
[35] CN(C)CCCNc1nc(-c2ccc(Cl)cc2)nc2ccccc12
[36] Cc1ccc(-c2nc(NCCN(C)C)c3ccccc3n2)cc1
Assay by compound,31,32,33,34,35,36
SMARCA2 activ,8.3*,-2,-3,9.6*,1,13*
NR1D1 modulator,-6,-4,1,-2,-5,5
GSIS activator,-2,7,.,-19,13,12
PDI turbidity,20,3,0,-3,-3,1
UUG fidelity,-9,.,-41,.,-6,-6
ERp5 block,-2,-4,.,2,0,-1
SMARCA2 act conf,-1,.,.,5,.,15*
GAL4-VP16 Luc,1,.,.,8.2*,.,2

[37] Cc1cnc(NC(=O)CN2CCN(c3ccccn3)CC2)s1
[38] COCC(=O)Nc1ccc2c(c1)OC[C@@H](C)N(C(=O)Cc1cccnc1)C[C@H](C)[C@@H](OC)CN(C)C2=O
[39] CC(CN(C)C)CN1c2ccccc2CCc2ccccc21 (stereo not drawn)
[40] Cc1cccc(Cn2ncc(Cl)c(Cl)c2=O)c1
[41] Cc1ccc(C)c(C(=O)Cn2ncc(Cl)c(Cl)c2=O)c1
[42] O=C(O)CSCC(=O)NC1CCCc2ccccc21 (stereo not drawn)
[43] CC(=O)NC(CC(=O)NC1CCCc2ccccc21)c1ccccc1 (stereo not drawn)
[44] Cc1ccc(-c2ccc3c(c2)O[C@@H](CN(C)C(=O)C2CCCCC2)[C@@H](C)CN([C@@H](C)CO)S3(=O)=O)cc1
Assay by compound,37,38,39,40,41,42,43,44
SMARCA2 activ,12*,.,8.2*,10*,30*,6,8.0*,.
NR1D1 modulator,0,.,0,0,0,1,0,.
GSIS activator,0,7,-28,-20,-20,2,-7,-12
PDI turbidity,-5,.,7,0,-1,8,8,.
UUG fidelity,-14,7,13,-3,.,-9,10,.
ERp5 block,5,0,0,0,.,-8,-2,.
SMARCA2 act conf,22*,.,0,-3,-14,.,-1,.
GAL4-VP16 Luc,1,.,2,0,1,.,-1,.

Screening results deposited in PubChem BioAssay by several laboratories.
